Values of other authors as cited in patent publication US7276608B2, “Tetrahydroquinoline derivatives as cannabinoid receptor modulators” (Bristol-Myers Squibb Company, priority 2003, dated 2007).

Details: chronic administration for two weeks

Cc1c(C(=O)NN2CCCCC2)nn(-c2ccc(Cl)cc2Cl)c1-c1ccc(I)cc1 [AM-251]
adipose tissue mass: decreased adipose tissue mass
